Measurements taken from patent publication US20230338337A1, “BIOMARKERS FOR CANCER THERAPY USING MDM2 ANTAGONISTS” (OTSUKA PHARMACEUTICAL CO., LTD., priority 2019, published 2023).

test system: SJSA-1; test: Protocol B: CellTiter-Glo cell viability assay; details: read-out: SJSA1 IC50 (μM) (Protocol B); Protocol B

| Substance | IC50 [µM] |
| --- | --- |
| (3R)-6-[1-(1-acetylpiperidin-4-yl)-1-hydroxyethyl]-3-(4-chlorophenyl)-2-[(5-chloropyridin-2-yl)methyl]-4-fluoro-3-(2-hydroxyethoxy)-2,3-dihydro-1H-isoindol-1-one [Example 421] | 0.59 |
| 6-{[(1R)-1-(4-chlorophenyl)-7-fluoro-5-[1-hydroxy-1-(1-methyl-1H-imidazol-4-yl)propyl]-3-oxo-1-[(3S)-oxolan-3-yloxy]-2,3-dihydro-1H-isoindol-2-yl]methyl}pyridine-3-carbonitrile [Example 366] | 2.7 |
| (3R)-6-[1-(1-acetylpiperidin-4-yl)-1-hydroxyethyl]-3-(4-chlorophenyl)-2-[(5-chloropyrimidin-2-yl)methyl]-4-fluoro-3-(2-hydroxyethoxy)-2,3-dihydro-1H-isoindol-1-one [Example 422] | 1.1 |
| 1-({[(1R)-2-[(4-chloro-2-methanesulfonylphenyl)methyl]-1-(4-chlorophenyl)-7-fluoro-5-(2-hydroxypropan-2-yl)-3-oxo-2,3-dihydro-1H-isoindol-1-yl]oxy}methyl)cyclopropane-1-carboxamide [Example 35] | 0.8 |
| (3R)-3-(4-Chlorophenyl)-2-[(4-chlorophenyl)methyl]-6-(2-hydroxypropan-2-yl)-3-{[1-(methoxymethyl)cyclopropyl]methoxy}-2,3-dihydro-1H-isoindol-1-one [Example 31] | 0.76 |
| (3R)-3-(4-chlorophenyl)-2-[(4-chlorophenyl)methyl]-6-(1,2-dihydroxypropan-2-yl)-3-{[1-(hydroxymethyl)cyclopropyl]methoxy}-2,3-dihydro-1H-isoindol-1-one [Example 8] | 3.8 |
| 2-{[(1R)-1-(4-chlorophenyl)-7-fluoro-1-[(3-fluorooxetan-3-yl)methoxy]-5-[1-hydroxy-1-(1-methyl-1H-imidazol-4-yl)propyl]-3-oxo-2,3-dihydro-1H-isoindol-2-yl]methyl}pyrimidine-5-carbonitrile [Example 471] | 3.5 |
| (3R)-3-(4-chlorophenyl)-2-[(5-chloropyridin-2-yl)methyl]-4-fluoro-6-[1-hydroxy-1-(1-methyl-1H-pyrazol-4-yl)ethyl]-3-[cis-3-hydroxycyclobutoxy]-2,3-dihydro-1H-isoindol-1-one [Example 205] | 0.22 |
| 6-{[(1R)-1-(4-chlorophenyl)-7-fluoro-5-[1-hydroxy-1-(1-methyl-1H-imidazol-4-yl)propyl]-1-[(2R)-2-hydroxypropoxy]-3-oxo-2,3-dihydro-1H-isoindol-2-yl]methyl}pyridine-3-carbonitrile [Example 437] | 2.5 |
| (3R)-3-(4-chlorophenyl)-4-fluoro-6-[1-hydroxy-1-(1-methyl-1H-pyrazol-4-yl)ethyl]-3-[(1-hydroxycyclopropyl)methoxy]-2-[(6-methoxypyridin-3-yl)methyl]-2,3-dihydro-1H-isoindol-1-one [Example 229] | 1.4 |
| 2-{[(1R)-1-(4-chlorophenyl)-7-fluoro-5-[1-hydroxy-1-(1-methyl-1H-imidazol-4-yl)propyl]-3-oxo-1-[trans-3-(hydroxymethyl)cyclobutoxy]-2,3-dihydro-1H-isoindol-2-yl]methyl}pyrimidine-5-carbonitrile [Example 482] | 5 |
| (3R)-3-(4-chlorophenyl)-4-fluoro-6-(2-hydroxypropan-2-yl)-3-methoxy-2-[(2-methoxy-6-methylpyridin-3-yl)methyl]-2,3-dihydro-1H-isoindol-1-one [Example 315] | 12 |
| (3R)-3-(4-chlorophenyl)-4-fluoro-6-[1-hydroxy-1-(1-methyl-1H-pyrazol-4-yl)ethyl]-3-{[1-(hydroxymethyl)cyclopropyl]methoxy}-2-[(6-methoxypyridin-3-yl)methyl]-2,3-dihydro-1H-isoindol-1-one [Example 220] | 0.6 |
| 1-({[(1R)-1-(4-chlorophenyl)-2-[(5-chloropyridin-2-yl)methyl]-7-fluoro-5-[1-hydroxy-1-(1-methylpiperidin-4-yl)ethyl]-3-oxo-2,3-dihydro-1H-isoindol-1-yl]oxy}methyl)cyclopropane-1-carboxamide [Example 305] | 1.9 |
| (3R)-3-(4-chlorophenyl)-2-[(5-chloropyrimidin-2-yl)methyl]-6-[1-(dimethylamino)-2-hydroxybutan-2-yl]-4-fluoro-3-[(3S)-oxolan-3-yloxy]-2,3-dihydro-1H-isoindol-1-one [Example 529] | 2.2 |
| 6-{[(1R)-1-(4-chlorophenyl)-7-fluoro-5-[1-hydroxy-1-(1-methyl-1H-pyrazol-4-yl)ethyl]-1-[(1-hydroxycyclopropyl)methoxy]-3-oxo-2,3-dihydro-1H-isoindol-2-yl]methyl}pyridine-3-carbonitrile [Example 340] | 2 |
| 2-{[1-({[(1R)-1-(4-Chlorophenyl)-2-[(5-chloropyridin-2-yl)methyl]-7-fluoro-5-(2-hydroxypropan-2-yl)-3-oxo-2,3-dihydro-1H-isoindol-1-yl]oxy}methyl)cyclopropyl]methoxy}acetic acid [Example 144] | 2.9 |
| (3R)-3-(4-chlorophenyl)-2-[(1S)-1-(4-chlorophenyl)ethyl]-3-(2,3-dihydroxy-2-methylpropoxy)-6-(2-hydroxypropan-2-yl)-2,3-dihydro-1H-isoindol-1-one [Example 6] | 2.5 |

More lines, in order of falling IC50, values ahead:

| IC50 [µM] | Substance |
| --- | --- |
| 0.57 | (3R)-3-(4-chlorophenyl)-4-fluoro-6-[1-hydroxy-1-(1-methyl-1H-pyrazol-4-yl)ethyl]-3-{[1-(hydroxymethyl)cyclopropyl]methoxy}-2-[(5-methoxypyridin-2-yl)methyl]-2,3-dihydro-1H-isoindol-1-one [Example 226] |
| 0.47 | 6-{[(1R)-1-(4-chlorophenyl)-5-[cyclopropyl(hydroxy)(1-methyl-1H-imidazol-4-yl)methyl]-7-fluoro-3-oxo-1-[(3S)-oxolan-3-yloxy]-2,3-dihydro-1H-isoindol-2-yl]methyl}pyridine-3-carbonitrile [Example 434] |
| 0.39 | (3R)-3-(4-chlorophenyl)-2-[(5-chloropyrimidin-2-yl)methyl]-4-fluoro-6-[2-hydroxy-1-(piperazin-1-yl)butan-2-yl]-3-(2-hydroxyethoxy)-2,3-dihydro-1H-isoindol-1-one [Example 530] |
| 0.34 | (3R)-3-(4-chlorophenyl)-2-[(5-chloropyridin-2-yl)methyl]-4-fluoro-6-[1-hydroxy-1-(1-methyl-1H-pyrazol-4-yl)ethyl]-3-[(2R)-2-hydroxypropoxy]-2,3-dihydro-1H-isoindol-1-one [Example 354] |
| 0.34 | 6-{[(1R)-1-(4-chlorophenyl)-7-fluoro-5-[1-hydroxy-1-(1-methyl-1H-imidazol-4-yl)propyl]-1-[(2R)-2-hydroxypropoxy]-3-oxo-2,3-dihydro-1H-isoindol-2-yl]methyl}pyridine-3-carbonitrile [Example 438] |
| 0.31 | 2-({[1-({[(1R)-1-(4-chlorophenyl)-2-[(5-chloropyridin-2-yl)methyl]-7-fluoro-5-(2-hydroxypropan-2-yl)-3-oxo-2,3-dihydro-1H-isoindol-1-yl]oxy}methyl)cyclopropyl]methyl}amino)-N-methylacetamide [Example 155] |
| 0.29 | (3R)-3-(4-chlorophenyl)-4-fluoro-6-[1-hydroxy-1-(1-methyl-1H-pyrazol-4-yl)ethyl]-3-[(1-hydroxycyclopropyl)methoxy]-2-[(5-methylpyridin-2-yl)methyl]-2,3-dihydro-1H-isoindol-1-one [Example 227] |
| 0.26 | (3R)-2-[(5-chloro-3-methanesulfonylpyridin-2-yl)methyl]-3-(4-chlorophenyl)-4-fluoro-6-[1-hydroxy-1-(1-methyl-1H-pyrazol-4-yl)ethyl]-3-methoxy-2,3-dihydro-1H-isoindol-1-one [Example 373] |
| 0.25 | N-{[1-({[(1R)-1-(4-Chlorophenyl)-2-[(5-chloropyridin-2-yl)methyl]-7-fluoro-5-(2-hydroxypropan-2-yl)-3-oxo-2,3-dihydro-1H-isoindol-1-yl]oxy}methyl)cyclopropyl]methyl}acetamide [Example 156] |
| 0.22 | (3R)-3-(4-chlorophenyl)-4-fluoro-6-[1-hydroxy-1-(1-methyl-1H-pyrazol-4-yl)ethyl]-3-[(1-hydroxycyclopropyl)methoxy]-2-[(6-methoxypyridin-3-yl)methyl]-2,3-dihydro-1H-isoindol-1-one [Example 230] |
| 0.11 | 6-{[(1R)-1-(4-Chlorophenyl)-5-(1-cyclopropyl-1-hydroxyethyl)-7-fluoro-1-{[1-(hydroxymethyl)cyclopropyl]methoxy}-3-oxo-2,3-dihydro-1H-isoindol-2-yl]methyl}pyridine-3-carbonitrile [Example 414] |
| 0.1 | 6-{[(1R)-1-(4-chlorophenyl)-7-fluoro-5-[1-hydroxy-1-(1-methyl-1H-imidazol-4-yl)propyl]-3-oxo-1-[(3S)-oxolan-3-yloxy]-2,3-dihydro-1H-isoindol-2-yl]methyl}pyridine-3-carbonitrile [Example 365] |
| 0.091 | 2-{[(1R)-1-(4-chlorophenyl)-7-fluoro-5-[1-hydroxy-1-(1-methyl-1H-imidazol-4-yl)propyl]-1-[(trans-3-hydroxycyclopentyl)oxy]-3-oxo-2,3-dihydro-1H-isoindol-2-yl]methyl}pyrimidine-5-carbonitrile [Example 461] |
| 0.079 | 2-{[(1R)-1-(4-chlorophenyl)-7-fluoro-5-[1-hydroxy-1-(1-methyl-1H-imidazol-4-yl)propyl]-1-[(trans-3-hydroxycyclopentyl)oxy]-3-oxo-2,3-dihydro-1H-isoindol-2-yl]methyl}pyrimidine-5-carbonitrile [Example 479] |
| 0.019 | (3R)-3-(4-chlorophenyl)-2-[(5-chloropyrimidin-2-yl)methyl]-4-fluoro-6-[1-(4-fluorooxan-4-yl)-1-hydroxyethyl]-3-[(1-hydroxycyclopropyl)methoxy]-2,3-dihydro-1H-isoindol-1-one [Example 386] |
